## Ab-91 heavy chain CDR variants: yeast mating affinities

The target is the same throughout: PDVDLGDISGINAS, from the HR2 region of SARS-CoV-2 spike.

Parent scFv Ab-91: VL joined to VH by the linker GGGGSGGGGSGGGGS. Changes lie in the heavy chain CDRs alone.
VL: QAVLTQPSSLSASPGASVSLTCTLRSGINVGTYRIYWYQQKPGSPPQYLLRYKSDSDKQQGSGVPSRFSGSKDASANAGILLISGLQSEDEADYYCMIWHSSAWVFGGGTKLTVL
VH: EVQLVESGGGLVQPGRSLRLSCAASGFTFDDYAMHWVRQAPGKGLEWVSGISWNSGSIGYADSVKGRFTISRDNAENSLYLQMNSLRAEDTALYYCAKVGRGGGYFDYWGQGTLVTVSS

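In library AAYL51, one, two or three CDR residues were substituted; doubles and triples were drawn at random. Affinity was read by AlphaSeq, a pooled yeast mating assay with surface-displayed partners. Pairs that bind mate more often; barcode pairs of the diploids are counted by sequencing. The ratio of observed to expected reads was calibrated, replicate by replicate, on BCL2-family standards whose Kd was known from biolayer interferometry. There are three technical replicates.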

Changes read parent residue, position, new residue, counted from the first residue of the VH shown. All variants listed here change A33 of the VH, counted from its first residue. Affinities are written as log10 Kd with Kd in nM; a lower number is a better binder. Where no diploid with the target was found in that replicate, the entry reads "ND": below detection, most likely a poor binder, though not proof of it. As a blank, each scFv also met three strains without target: over library AAYL51, 21% of these pairings were detected, typically at 4.54 and seldom below 3.26.

Variant A33D+G50P showed ND, ND, 5.79. Variant D30I+A33M+W53Y showed 4.26, ND, 4.13. With A33Q+G104M the result was 4.04, 3.91, 3.99. Variant A33H+V99K showed 2.28, 2.43, 2.15. Variant Y32G+A33F gave ND, ND, ND. Variant T28K+A33M+V64W gave ND, 5.74, 4.88.

Variant D30G+A33D+S57K showed ND, ND, ND. Variant A33C+M34L+F106S gave ND, ND, ND. With A33P the result was 2.15, 1.64, 1.18. With D30H+A33K+N54K the result was ND, ND, ND. With A33H+N54R+D107R the result was ND, ND, ND. Variant A33V+Y108K gave ND, 5.22, ND.

For D31K+A33D+I58V, the assay gave 1.73, 2.22, 1.21. Variant A33W+N54Y gave ND, ND, ND. For A33I+G102L+F106R, the assay gave ND, 4.11, ND. For A33T+N54R+I58H, the assay gave 3.33, ND, ND. Variant G26V+D31T+A33Q gave ND, 3.38, ND. Variant A33N+S63F showed ND, ND, ND.

Variant G26Y+A33G+F106Y showed ND, ND, ND. For A33C+S52N+V64C, the assay gave 4.60, ND, ND. Variant D30C+A33F+V99W showed 1.61, 1.31, 0.92. For A33G+G56M+G104N, the assay gave 1.57, 1.51, 1.44. With A33L+S55N the result was ND, ND, ND.

2 of these entries, quoted again:

{"changes": "Y32G+A33F", "log10 Kd (nM) by replicate": "ND, ND, ND"}
{"changes": "A33G+G56M+G104N", "log10 Kd (nM) by replicate": "1.57, 1.51, 1.44"}

The measurements come from Engelhart et al. 2022 (doi:10.1038/s41597-022-01779-4) through the FLAb antibody collection.